Screening results: PubChem, National Center for Advancing Translational Sciences (NCATS)
ALDH1A1 inh – ALDH1A1 (human) enzyme inhibition. Purified ALDH1A1, NADH fluorescence, propionaldehyde substrate. 220,000 tested, 7.3% active. Potency, µM (highest dose often 75.3 µM), for inactives: at the top dose activity, negative = inhibition, actives largely listed as inhibitors; active means well fitted inhibition curve with a large enough effect, not every such curve was filed as active; inconclusive means small, poorly fitted or top-dose-only effect, or another doubt; inactive means no such curve, though single readings can be large or run the other way;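 further: potency means the concentration at half of the fitted maximal effect; plate controls were no enzyme wells and a reference inhibitor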
Lamin A splicing – modulators of lamin A splicing | Potency, µM (titrated, usually from 46.1 µM), for inactives: at the highest dose ratio change, negative = inhibition, usual class: inhibitors | 200,000 tested, 0.01% active | HeLa LMNA splicing GFP/RFP minigene ratio, 48 h; active means well fitted inhibition curve with a large enough effect in the signal ratio, with a control signal flat, not every such curve was filed as active; inconclusive means small, poorly fitted or top-dose-only effect, or effect the other way, or a change in a side signal; the % refers to the signal ratio; further: potency means the concentration at half of the fitted maximal effect; on the % scale 0 is the no-effect control and ±100 the full control effect
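Read-out is the ratio of GFP to DsRed2 object intensity, acquired by 488 nm laser-scanning cytometry on HeLa lamin A-EGFP minigene reporter cells. Compound incubation 48 hrs at 37 °C in Opti-MEM with 2% FBS; DMSO 0.5% final.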
JMJD2E inh – JMJD2E (human) inhibition | AID 2147 | 230,000 tested, 1.6% active | Potency, µM (titrated, usually from 57.1 µM), inactives show top-dose activity change, negative = inhibition, most hits filed as inhibitors | JMJD2E catalytic domain, FDH-coupled NADH fluorescence (FDH is formaldehyde dehydrogenase) | B2RXH2; active means well fitted inhibition curve with a large enough effect, not every such curve was filed as active; inconclusive means small, poorly fitted or top-dose-only effect, or another doubt; inactive means no such curve, though single readings can be large or run the other way;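 further: potency means the concentration at half of the fitted maximal effect; 0% = wells with enzyme and -100% = buffer wells without enzyme; nearly all actives have a fitted effect of over 50% in size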
Sfp PPTase inh – inhibitors of Bacillus subtilis Sfp phosphopantetheinyl transferase; actives 3.5% (n = 310,000); Q9F4F7; Biochemical Sfp PPTase activity, qHTS; Potency, µM, for the others: max response, negative = inhibition, hits mostly inhibitors; active = well fitted inhibition curve with a large enough effect; inconclusive = small, poorly fitted or top-dose-only effect, or another doubt; inactive = no such curve, though single readings can be large or run the other way;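 also: the enzyme is Sfp with the accession as filed and its product quenches rhodamine fluorescence; potency is read from the fitted curve at half-maximal effect; 0% = enzyme reaction without inhibitor and -100% = no enzyme wells; top concentration of the series not given in the record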
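With Hepes-Na pH 7.6 buffer containing 10 mM MgCl2, Sfp (15 nM) modified BHQ-2-YbbR (12.5 uM) using rhodamine-CoA (5 uM). Two reads 30 minutes apart at 525/598 nm yielded each well's rate.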
miR-21 reporter – raises the signal of a miR-21 reporter. HeLa miR-21 FLuc reporter, luciferase, 48 h. 340,000 tested, under 10 active. Potency, µM (highest dose often 38.3 µM), for the others: at the highest dose reporter change, positive = more light; active = well fitted rising curve with a large enough effect; inconclusive = small, poorly fitted or top-dose-only effect; inactive = no such curve, though single readings can be large or run the other way;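 note: % of control where 0% means no effect; miR-21 action dims this reporter so a rising signal means less miR-21 action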
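Luminescence from a firefly luciferase reporter carrying a miR-21 binding site downstream, stably expressed under a CMV promoter in HeLa cells that make miR-21 endogenously, reports miRNA modulation after 48 h compound exposure up to approximately 40uM final.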
G9a block – blocks human histone lysine methyltransferase G9a | G9a H3K9 monomethylation, AlphaScreen, 2 h | Potency, µM (series often up to 102 µM), for inactives: at the highest dose activity, negative = inhibition, most hits filed as inhibitors | Q96KQ7 | 350,000 tested, 8.8% active; further: potency means the concentration at half of the fitted maximal effect; on the % scale 0 is the no-effect control and ±100 the full control effect; nearly all actives have a fitted effect of over 75% in size
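Chemiluminescent proximity detection of H3K9 monomethylation, read after 10 min bead incubation in the dark. Reaction: 20 nM G9a, 500 nM biotin-H3K9 peptide, 20 uM SAM cofactor, 2 h, room temperature, following 15 min enzyme-compound preincubation.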
Starred values were filed as active, the others as inactive; ? = inconclusive; . = not tested or not shown; [ ] = dose if it differs, or a comment. An excerpt weighted towards active compounds, which were near 13% of everything screened. Unless noted, the call rests on the fitted dose curve; in most records, active means well fitted curve in the direction sought with a large enough effect; inconclusive means small, poorly fitted or top-dose-only effect, or another doubt; inactive means no such curve, though single readings can be large; an effect the other way counts as inactive or inconclusive.

1. CCOC(=O)CNc1oc(-c2ccccc2)nc1-c1ccccc1
2. CCOc1ccc(S(=O)(=O)N2CCN(C(=O)c3cc([N+](=O)[O-])ccc3N3CCOCC3)CC2)cc1
3. O=C(COC(=O)c1cc([N+](=O)[O-])ccc1N1CCOCC1)c1ccccc1Cl
4. COc1cc(C(=O)COC(=O)c2cc([N+](=O)[O-])ccc2N2CCOCC2)ccc1OC(F)F
5. Cc1cc(C)c(C(=O)COC(=O)c2cc([N+](=O)[O-])ccc2N2CCOCC2)cc1C
6. CC1CC(C)CN(C(=O)COC(=O)c2cc([N+](=O)[O-])ccc2N2CCOCC2)C1 (stereo unspecified)

| entry no. | 1 | 2 | 3 | 4 | 5 | 6 |
| --- | --- | --- | --- | --- | --- | --- |
| ALDH1A1 inh | -1.1% | . | . | . | . | . |
| Lamin A splicing | . | . | . | . | . | . |
| JMJD2E inh | -5.2% | . | . | . | . | . |
| Sfp PPTase inh | -0.4% | . | 9.3% | . | . | . |
| miR-21 reporter | . | . | -3.1% | . | . | . |
| G9a block | . | 3.16µM* | 23.7%[12.7 µM] | 31.6µM* | 15.8µM* | 79.4µM* |

7. COc1ccc(CNC(=O)c2ccc3c(c2)N(Cc2cccc(Cl)c2)C(=O)c2ccccc2S3)c(OC)c1
8. CC(C)CN(CC(C)C)CC(O)COc1ccc([N+](=O)[O-])cc1 (stereo unspecified)
9. COC(=O)Cc1c[nH]c2cccc(OCC(O)CN(Cc3ccc([N+](=O)[O-])cc3)C(C)(C)C)c12 (stereo unspecified)
10. Cc1ccc(CN(CC(O)COc2cccc3[nH]cc(C)c23)C(C)(C)C)cc1 (stereo unspecified)
11. CCc1ccccc1NC(=O)NCc1cccnc1
12. CCOCC(=O)Nc1nnc(COCC)s1

| entry no. | 7 | 8 | 9 | 10 | 11 | 12 |
| --- | --- | --- | --- | --- | --- | --- |
| ALDH1A1 inh | . | -0.7% | 25.1µM* | . | . | ? |
| Lamin A splicing | -12.2%[46 µM] | 5.6% | ? | . | . | -3.6% |
| JMJD2E inh | . | -2.2% | -24.0% | . | . | -2.2% |
| Sfp PPTase inh | . | -5.0% | -10.0% | -18.2% | 15.5% | 3.6% |
| miR-21 reporter | -7.1% | 0.9% | 26.4% | 12.7% | -2.9% | -3.3% |
| G9a block | -28.6%[59 µM] | 43.4%[59 µM] | . | 50.1µM* | 46.7% | 2.8%[59 µM] |

13. CCOCc1nnc(NC(=O)COC)s1
14. CCOCC(=O)Nc1nnc(Cc2ccc(OC)c(OC)c2)s1
15. O=C(COCc1cc(-c2cccs2)on1)N1CCN(c2ccccc2)CC1
16. O=C(Oc1ccc2c(=O)c(Cl)coc2c1)c1cccnc1
17. COC(=O)c1ccc(C(NC(=O)OCc2ccccc2)/C(F)=C/[C@@H](C)C(=O)N(C)Cc2cccnc2)cc1 (stereo partly specified)
18. CC(Sc1nncn1C)C(=O)Nc1ccc2ccccc2c1 (stereo unspecified)

| entry no. | 13 | 14 | 15 | 16 | 17 | 18 |
| --- | --- | --- | --- | --- | --- | --- |
| ALDH1A1 inh | ? | -12.6% | . | 20µM* | ? | . |
| Lamin A splicing | 5.3% | -1.6% | ? | 13.3% | . | . |
| JMJD2E inh | 2.4% | 4.3% | . | ? | 4.5% | . |
| Sfp PPTase inh | 50.1µM* | -2.5% | . | -13.3% | 11.8% | . |
| miR-21 reporter | -0.1% | 0.1% | -0.1% | 0.1% | . | . |
| G9a block | ? | 15.8µM* | -7.2%[59 µM] | -7.3%[59 µM] | . | 8.91µM* |

Some of the entries above, set out differently:
item	smiles	ALDH1A1 inh	Lamin A splicing	JMJD2E inh	Sfp PPTase inh	miR-21 reporter	G9a block
18	CC(Sc1nncn1C)C(=O)Nc1ccc2ccccc2c1 (stereo unspecified)	.	.	.	.	.	8.91µM*
15	O=C(COCc1cc(-c2cccs2)on1)N1CCN(c2ccccc2)CC1	.	?	.	.	-0.1%	-7.2%[59 µM]
17	COC(=O)c1ccc(C(NC(=O)OCc2ccccc2)/C(F)=C/[C@@H](C)C(=O)N(C)Cc2cccnc2)cc1 (stereo partly specified)	?	.	4.5%	11.8%	.	.

Later entries:
19. Cc1ccc2nc3sc(C(=O)Nc4c(C)[nH]c(=O)[nH]c4=O)c(N)c3cc2c1
20. Cc1ccc2cc3c(N)c(C(=O)Nc4c(C)[nH]c(=O)[nH]c4=O)sc3nc2c1
21. Cc1cc(C)c2c(N)c(C(=O)Nc3ccc(C)c(C)c3)sc2n1
22. Cc1[nH]c(=O)[nH]c(=O)c1NC(=O)c1sc2nc3c(C)cccc3cc2c1N
23. Cc1ccc2cc3c(N)c(C(=O)N4CC(=O)Nc5ccccc54)sc3nc2c1
24. O=[N+]([O-])c1ccc(-n2cccn2)c(-c2nn[nH]n2)c1
25. CC1CC(C)CN(c2ccc([N+](=O)[O-])cc2-c2nn[nH]n2)C1 (stereo unspecified)
26. CC(=O)N1CCN(C(=O)c2ccc(-c3ccccc3Cl)o2)CC1
27. CC1CCCN(C(=O)c2ccncc2)C1 (stereo unspecified)

| entry no. | 19 | 20 | 21 | 22 | 23 | 24 | 25 | 26 | 27 |
| --- | --- | --- | --- | --- | --- | --- | --- | --- | --- |
| ALDH1A1 inh | -3.5% | 4.2% | . | -14.8% | -20.0% | ? | -12.1% | . | 3.4% |
| Lamin A splicing | -8.6% | -2.2% | . | 2.7% | ? | . | 0.0% | . | -4.9% |
| JMJD2E inh | -25.1% | -1.4% | . | ? | ? | 0.4% | 3.16µM* | . | 12.7% |
| Sfp PPTase inh | -16.5% | -5.8% | 11.6% | -26.9% | -17.3% | -15.9% | -17.5% | . | 11.2% |
| miR-21 reporter | -20.2% | 1.6% | -49.0% | 8.3% | 2.7% | 0.4% | -2.4% | . | -10.7% |
| G9a block | 10µM* | 10µM* | 8.7% | 10µM* | -8.2%[0.0925 µM] | ? | -3.7%[59 µM] | 2.7%[12.7 µM] | 10.2%[12.7 µM] |
